# Binding of CDR-mutated scFvs to a peptide of the spike HR2 region

All variants were tested on one target, the spike HR2 peptide PDVDLGDISGINAS (SARS-CoV-2).

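Variants in AAYL49 differ from the parent at up to three CDR positions; double and triple changes were sampled at random. In AlphaSeq, yeast of one mating type display the scFv and yeast of the other type display the target. After mating in shaken culture at 30 °C for 16 h, diploids were selected and their barcode pairs sequenced. The ratio of observed to expected reads was calibrated, replicate by replicate, on BCL2-family standards whose Kd was known from biolayer interferometry. Mating was done three times.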

Parent: Ab-14, a human scFv built as VH, three GGGGS repeats, VL. Only the CDRs of the heavy chain vary.
VH: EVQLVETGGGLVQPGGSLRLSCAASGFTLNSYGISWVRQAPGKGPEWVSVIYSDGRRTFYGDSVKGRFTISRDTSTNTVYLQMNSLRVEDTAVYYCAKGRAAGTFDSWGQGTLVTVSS
VL: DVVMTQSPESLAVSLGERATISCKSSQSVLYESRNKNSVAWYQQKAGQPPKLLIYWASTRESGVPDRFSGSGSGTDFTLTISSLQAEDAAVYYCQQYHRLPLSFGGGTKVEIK

Variants are written as CDR1, CDR2 and CDR3 of the heavy chain (limits as in the source). Parent: GFTLNSYGIS, VIYSDGRRTFYGDSVK, GRAAGTFDS.
Numbers give log10(Kd / nM), so 0 is 1 nM and 3 is 1 µM. Smaller is tighter.
The mean shown is taken over the replicates in which the pair was detected.
Where no diploid with the target was found in that replicate, the entry reads "nd": below detection, most likely a poor binder, though not proof of it.

Variant VFTLNSYGIS, VIYSDGRMTFYGDSVK, GRAAGPFDS showed nd, nd, nd (controls 0 of 9).
Variant GSTLNSIGIM, VIYSDGRRTFYGDSVK, GRAAGTFDS showed nd, nd, nd (controls 0 of 9).
Variant GFTLNVYGIS, VIYSDGRRTFVGDSVK, GRTAGTFDS showed 1.12, 1.40, 1.59 (mean 1.37; controls 0 of 9).
Variant GFTLNSYGES, VICSDGRRTFAGDSVK, GRAAGTFDS showed nd, nd, nd (controls 1 of 9).
Variant GFTLNSYGIS, VIYLDGRRTDQGDSVK, GRAAGTFDS showed nd, nd, 3.85 (controls 5 of 9).
Variant GTTLNSYTIS, VIYSDQRRTFYGDSVK, GRAAGTFDS showed nd, 3.88, nd (controls 2 of 9).
Variant GFTLNEYGIS, VIYSDGRRTFYGDSVK, GLAAGTFDD showed 0.46, 1.02, 0.72 (mean 0.73; controls 0 of 9).
Variant GFTDNSYGIS, VIYDDGRRTFYGDSVK, GRAAGNFDS showed nd, nd, nd (controls 1 of 9).
Variant GFTLNSYGIS, VDYSDGDRTFYGDSVK, GRPAGTFDS showed nd, nd, nd (controls 1 of 9).
Variant EFTLNSYGIS, VIYSDGCRTFYGDSVH, GRAAGTFDS showed 6.54, 4.44, 4.74 (mean 5.24; controls 6 of 9).
Variant KFTLNSYGIS, VIYSDGRRQFYGDSVN, GRAAGTFDS showed nd, nd, 4.81 (controls 0 of 9).
Variant GPTLNSYGFS, VIYSDSRRTFYGDSVK, GRAAGTFDS showed nd, 4.96, nd (controls 4 of 9).
Variant GFTLNSYGDS, VIYSDGRRTYYGDKVK, GRAAGTFDS showed 5.87, 3.66, 3.94 (mean 4.49; controls 1 of 9).
Variant GFTLNSYGIS, NISSDGRRYFYGDSVK, GRAAGTFDS showed nd, nd, nd (controls 0 of 9).
Variant GFTLGSYGIS, VIYSDGRRTFYGDSVN, GAAAGTFDS showed 2.00, 2.52, 2.56 (mean 2.36; controls 0 of 9).
Variant GFTLNSYGIS, VKYSDGRRTEYGDRVK, GRAAGTFDS showed nd, nd, nd (controls 1 of 9).
Variant GFTLNSYGIS, VIYSDGRRTFCGDSVK, WRAAGTFDS showed nd, 4.38, nd (controls 2 of 9).
Variant GFTLNSYGIS, VIYSDGRRTFYSASVK, GRAAGTFDS showed nd, 3.75, nd (controls 0 of 9).
Variant GFTLNSYYIS, FIYSDGKRTFYGDSVK, GRAAGTFDS showed nd, nd, nd (controls 3 of 9).
Variant GFTLNSFGYS, VIYSDGRRTFYGDTVK, GRAAGTFDS showed nd, 3.06, 4.53 (mean 3.79; controls 1 of 9).
Variant GFTLNSYGIS, IIYSDERRTFYGDSVK, GRAAGTFDA showed nd, nd, 3.50 (controls 1 of 9).
Variant LFTLNSYGIS, VIYTDTRRTFYGDSVK, GRAAGTFDS showed nd, nd, nd (controls 2 of 9).
Variant PFTLGSYGIS, VIYSDGRRTFYGDSVK, GPAAGTFDS showed nd, 4.36, 4.28 (mean 4.32; controls 2 of 9).
Variant GFTLNSELIS, VIYSDGRRTFYGDSVK, GRAAGSFDS showed nd, nd, nd (controls 0 of 9).
Variant GFTLNHYGIS, VIYSDGRRTFYGDSVC, GRAAGTFNS showed 4.41, 3.70, 3.71 (mean 3.94; controls 2 of 9).
Variant GFWRNSYGIS, VIYSDDRRTFYGDSVK, GRAAGTFDS showed 3.29, nd, nd (controls 1 of 9).
Variant GFTLNSYGIS, VYYSDGRRTFYGDSVK, GRAVGTFHS showed nd, nd, nd (controls 0 of 9).
Variant GFTLNSHGIS, VIYQDGRRTFYGDSVK, GRAYGTFDS showed nd, nd, nd (controls 0 of 9).
Variant GFTLNSYGIA, VIYSDGRRTFYGDAVK, GRAAGTFDS showed nd, nd, nd (controls 0 of 9).
Variant GFTLNSYGIS, VIYSDGRRTFMGDSVK, GRAEGYFDS showed 3.90, nd, 5.48 (mean 4.69; controls 2 of 9).

The last 4 entries again:

{"CDR-H1": "GFTLNSYGIS", "CDR-H2": "VYYSDGRRTFYGDSVK", "CDR-H3": "GRAVGTFHS", "log10 Kd (nM) by replicate": "nd, nd, nd", "mean, log10 nM": "nd", "signal with controls": "0/9"}
{"CDR-H1": "GFTLNSHGIS", "CDR-H2": "VIYQDGRRTFYGDSVK", "CDR-H3": "GRAYGTFDS", "log10 Kd (nM) by replicate": "nd, nd, nd", "mean, log10 nM": "nd", "signal with controls": "0/9"}
{"CDR-H1": "GFTLNSYGIA", "CDR-H2": "VIYSDGRRTFYGDAVK", "CDR-H3": "GRAAGTFDS", "log10 Kd (nM) by replicate": "nd, nd, nd", "mean, log10 nM": "nd", "signal with controls": "0/9"}
{"CDR-H1": "GFTLNSYGIS", "CDR-H2": "VIYSDGRRTFMGDSVK", "CDR-H3": "GRAEGYFDS", "log10 Kd (nM) by replicate": "3.90, nd, 5.48", "mean, log10 nM": "4.69", "signal with controls": "2/9"}

Three control strains display no target. For library AAYL49, 15% of the pairings with them gave a signal, with a median of 4.06 and one signal in twenty below 2.83, so weak values seen in few replicates may be background. Also given: how often the same scFv was detected with the empty control strains.

Reference: Engelhart et al. 2022, doi:10.1038/s41597-022-01779-4. File: FLAb, binding data.